The test addresses T1, elastase from human neutrophil (Homo sapiens, UniProt P08246).
T1 construct: from tissue; host or cells: human neutrophil
T1 sequence (P08246 30-247 limits assumed): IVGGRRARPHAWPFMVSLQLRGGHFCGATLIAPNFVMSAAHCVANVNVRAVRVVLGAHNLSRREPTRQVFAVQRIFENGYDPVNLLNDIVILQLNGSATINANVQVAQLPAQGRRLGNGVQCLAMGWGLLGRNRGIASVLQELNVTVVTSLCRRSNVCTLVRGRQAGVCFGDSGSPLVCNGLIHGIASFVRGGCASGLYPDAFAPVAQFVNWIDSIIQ
Kind of test: Inhibitory effect on elastase (spectrophotometric, Suc-Ala-Pro-Ala-pNA substrate). As to conditions: 1 mM Suc-Ala-Pro-Ala-pNA, pH 8.0, 37° C., 30 minutes. The format is biochemical. How it is done:
The test was carried out by a slight modification of the method of Bieth et al [see Biochem. Med., 75, 350 (1974)] using elastase from human neutrophil. Namely, it is a spectrophotometric method using the synthesized substrate [succinyl-alanyl-prolyl-alanyl-p-nitroanilide (Suc-Ala-Pro-Ala-pNA, produced by the peptide laboratory)] which has comparatively high specificity on neutrophil elastase.
The reaction mixture consisted of 1 mM Suc-Ala-Pro-Ala-pNA (dissolved in N-methylpyrrolidone to the concentration of 100 mM, and then adding 1/100 amount of the solution to the reaction mixture.), 0.1M Tris-HCl buffer solution (pH 8.0), 0.2M sodium chloride aqueous solution, the sample solution of various concentrations and enzyme solution in a final volume of 1.0 ml was then incubated at 37° C. for 30 minutes. The reaction was stopped by the addition of 100 μl of 50% acetic acid into the reaction mixture, and then p-nitroanilide released was measure on absorbance of 405 nm with spectrophotometer. Inhibition percentage and IC50 value, of the test compound were calculated.

Molecules are shown by their SMILES.

These results are taken from US5359121A, “Glycine derivative monosodium salt tetrahydrate” (Ono Pharmaceutical Co., Ltd., priority 1991, dated 1994).

What is called IC50 is the concentration needed to halve the response being measured. A lower IC50 goes with greater potency.

Take `CC(C)(C)C(=O)Oc1ccc(S(=O)(=O)Nc2ccccc2C(=O)NCC(=O)[O-])cc1.O.O.O.O.[Na+]` [the present invention compound, N-[o-(p-pivaloyloxybenzenesulfonylamino)benzoyl]glycine monosodium salt tetrahydrate]: inhibition was half-maximal at 46 nM (IC50).
